Earlier results in US8877755B2, “Dopamine-agonist combination therapy for improving sleep quality” (priority 2004, dated 2014).
Counter-ions that a name gives are not always drawn.

Conditions: mouse

CN1CCc2cccc3c2[C@H]1Cc1ccc(O)c(O)c1-3 [apomorphine HCl]
LD50: > 50 mg/kg
